Experimental water solubility values from OPERA 2.9

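The numbers are reported measurements, compiled and curated for the OPERA QSAR suite. One number stands for a compound and property, with no spread given. Method, purity and exact conditions of the single measurements are not given. A value may pool stereoisomers or salt forms, and the file does not say which form was measured. Unmarked limits or estimates from the upstream databases cannot be ruled out.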

Solubility in water is on a log10 molar scale (set defined at 25 °C).

CCCCCCCCCCCC has water solubility -7.665 (log10 mol/L). OC(Cc1ccccc1Cl)(CN1NCNC1=S)C1(Cl)CC1 (configuration not stated) has water solubility -5.124 (log10 mol/L). Nc1ccc(C(=O)O)c(S(=O)(=O)O)c1 is reported with water solubility -1.86 (log10 mol/L). COc1cccc(O)c1 has water solubility -2.39 (log10 mol/L). CCC/C=C/CCCCCCCOC(C)=O has water solubility -4.611 (log10 mol/L). Listed for Cc1cnc2c(=O)nc[nH]c2n1: water solubility -1.561 (log10 mol/L).

For O=c1c2ccccc2c2cc3ccc4c(=O)c5c(Br)c(Br)ccc5c5cc6ccc1c2c6c3c45 the data give water solubility -4.45 (log10 mol/L). Nc1cc(S(=O)(=O)O)c(N)c(S(=O)(=O)O)c1 has water solubility -0.069 (log10 mol/L). N[C@@H](CSCCCCCCSC[C@H](N)C(=O)O)C(=O)O is reported with water solubility -2.771 (log10 mol/L). C[C@H](CCC(=O)NCC(=O)O)[C@H]1CC[C@H]2[C@@H]3[C@@H](O)C[C@@H]4C[C@H](O)CC[C@]4(C)[C@H]3CC[C@]12C has water solubility -5.339 (log10 mol/L). The entry for O=C(O)C=C(F)C(F)(F)C(F)(F)C(F)(F)C(F)(F)C(F)(F)C(F)(F)C(F)(F)F lists water solubility -3.853 (log10 mol/L). For CCC(C(=O)O)c1ccccc1 (configuration not stated) the data give water solubility 0.405 (log10 mol/L).

CCCCCCCC(C)O (configuration not stated) is reported with water solubility -2.74 (log10 mol/L). O=C(O)C1CCCCN1 (configuration not stated) has water solubility 0.386 (log10 mol/L). COC(=O)C1=CO[C@@H](OC2OC(CO)C(O)C(O)C2O)[C@@H]2[C@@H](C)[C@@H](O)C[C@H]12 (stereo partly drawn) is reported with water solubility -0.591 (log10 mol/L). Clc1ccc(-c2ccc(-c3c(Cl)cc(Cl)cc3Cl)cc2)cc1 has water solubility -9.32 (log10 mol/L). O=C1OC(=O)C2CC=CCC12 (configuration not stated) has water solubility -1.182 (log10 mol/L). The entry for O=C(CCCN1CCC(O)(c2ccc(F)cc2)CC1)c1ccc(F)cc1 lists water solubility -4.175 (log10 mol/L).

CCC(O)(CC)C(O)CC(C)C (configuration not stated) is reported with water solubility -1.598 (log10 mol/L). The entry for CC(C)SC(C)C lists water solubility -2.24 (log10 mol/L). Listed for CN1CCC(CN2c3ccccc3Sc3ccccc32)C1.Cl (configuration not stated): water solubility 0.177 (log10 mol/L). Cc1nn(C)c(F)c1C(O)=Nc1ccccc1C(C)CC(C)C (configuration not stated) has water solubility -4.46 (log10 mol/L). Listed for CC(C)NCC(O)c1ccc(NS(C)(=O)=O)cc1 (configuration not stated): water solubility -2.542 (log10 mol/L). CC(=O)O[C@]1(C(C)=O)CC[C@H]2[C@@H]3C=CC4=CC(=O)C=C[C@]4(C)[C@H]3CC[C@@]21C is reported with water solubility -4.265 (log10 mol/L).

The entry for O=C(O)CSC(CC(=O)O)c1ccccc1 (configuration not stated) lists water solubility -1.247 (log10 mol/L). Listed for OCCC(F)(F)C(F)(F)C(F)(F)C(F)(F)C(F)(F)C(F)(F)C(F)(F)C(F)(F)F: water solubility -6.388 (log10 mol/L). The entry for CCN(CCOC(C)OCC(C)C)c1ccc(N=Nc2ccccc2)cc1 (configuration not stated) lists water solubility -7.09 (log10 mol/L). For Cc1oc2ccccc2c(=O)c1C the data give water solubility -2.065 (log10 mol/L). CCCCCCOC(=O)C(C)OC(C)=O (configuration not stated) has water solubility -0.855 (log10 mol/L). Nc1ccc(N=Nc2ccc(N)c3ccccc23)cc1 is reported with water solubility -6.52 (log10 mol/L).

The entry for Nc1cnc2ncncc2n1 lists water solubility -2.344 (log10 mol/L). Listed for C=CCCCCCCCCCOC(=O)C(C#N)=C(c1ccccc1)c1ccccc1: water solubility -8.663 (log10 mol/L). For CC1(C)CC(N)C(C)(C)N1O.N.[Cl-].[Cl-].[Pt+2] (configuration not stated) the data give water solubility -2.645 (log10 mol/L). CC(C)c1cc(O)c(=O)ccc1Br has water solubility -3.67 (log10 mol/L). For CC1=COC(=O)C2C(C)CCC12 (configuration not stated) the data give water solubility -2.03 (log10 mol/L). Listed for O=C(O)[C@@H]1OC(c2ccccc2)O[C@H]1[C@@H]1COC(c2ccccc2)O1 (stereo partly drawn): water solubility -2.455 (log10 mol/L).

Listed for Cc1cc(O)n(CCC(=O)O)c(=O)c1C(N)=O: water solubility -1.602 (log10 mol/L).

The first 3 entries again:

compound	water solubility (log10 mol/L)
CCCCCCCCCCCC	-7.665
OC(Cc1ccccc1Cl)(CN1NCNC1=S)C1(Cl)CC1 (configuration not stated)	-5.124
Nc1ccc(C(=O)O)c(S(=O)(=O)O)c1	-1.86

From the experimental data distributed with OPERA 2.9.